The source of these data is ChEMBL document CHEMBL1139839, “SAR of a series of 5,6-dihydro-(9H)-pyrazolo[3,4-c]-1,2,4-triazolo[4,3-alpha]pyridines as potent inhibitors of human eosinophil phosphodiesterase” (J Med Chem, 2007).

The data set is filed under the species Homo sapiens. The experiment in a line: Plasma protein binding in human.

By fraction unbound is commonly meant the share of the substance not bound to proteins or other matrix. Lower therefore signals little free substance. In the case of `CCc1nn(C2CCCC2)c2c1CCn1c(-c3cccs3)nnc1-2` [TOFIMILAST], the fraction unbound was found to be 0.02.
